Source: PubChem BioAssay (National Center for Advancing Translational Sciences (NCATS))
DT40 TDP1 CPT = DT40-hTDP1 cell growth loss with CPT | chicken DT40 Tdp1-/-;hTDP1 cells + 20 nM CPT, ATP luminescence, 48 h | Potency, µM (highest dose often 46.2 µM), without a hit: top-dose activity change, negative = growth inhibition, hits mostly inhibitors | 12% of 420,000 active; also: potency is read from the fitted curve at half-maximal effect; % is scaled to controls: 0 for no effect and ±100 for the full control effect; nearly all actives have a fitted effect of over 55% in size
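Chicken DT40 Tdp1-/- cells complemented with human TDP1, 400 cells/well, exposed to compounds plus 20 nM camptothecin for at least 48 h at 37 C; viability read as ATP content by CellTiter-Glo luminescence.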
DT40 TDP1 no CPT = qHTS for Inhibitors of human tyrosyl-DNA phosphodiesterase 1 (TDP1): qHTS in cells in absence of CPT | 15% of 420,000 active | Potency, µM (top dose mostly 46.2 µM), inactives show at the top dose activity change, negative = growth inhibition, actives largely listed as inhibitors | AID 686978, 2013 | DT40 Tdp1-/- hTDP1 cells, no CPT, ATP luminescence, 48 h; also: potency is read from the fitted curve at half-maximal effect; % is scaled to controls: 0 for no effect and ±100 for the full control effect; nearly all actives have a fitted effect of over 55% in size
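Readout: luminescence from CellTiter-Glo after 30 min in the dark at RT. Cells: DT40 Tdp1-/- with stable hTDP1, 400/well. Exposure: compounds alone, ≥48 hr, 37 °C.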
uPA generation = inhibitors of cell surface uPA generation. cell surface uPA generation assay, qHTS. Potency, µM (highest dose often 38.3 µM), inactives show top-dose activity change, negative = inhibition, usual class: inhibitors. 0.31% of 330,000 active; active = well fitted inhibition curve with a large enough effect; inconclusive = small, poorly fitted or top-dose-only effect; inactive = no such curve, though single readings can be large or run the other way; tested in mouse RAW 264.7 cells; also: potency is read from the fitted curve at half-maximal effect; % is scaled to controls: 0 for no effect and ±100 for the full control effect; nearly all actives have a fitted effect of over 55% in size
miR-21 reporter = raises the signal of a miR-21 reporter; AID 2288; 340,000 tested, under 10 active; Potency, µM (doses to about 38.3 µM), inactives show at the top dose reporter change, positive = more light; HeLa miR-21 FLuc reporter, luciferase, 48 h; active = well fitted rising curve with a large enough effect; inconclusive = small, poorly fitted or top-dose-only effect; inactive = no such curve, though single readings can be large or run the other way;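 note: % of control where 0% means no effect; miR-21 action dims this reporter so a rising signal means less miR-21 action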
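HeLa cells endogenously expressing miR-21, stably carrying CMV-driven firefly luciferase with a downstream miR-21 binding site, 2000 cells/well. Titrations up to approximately 40 uM, 48 hours; luciferase luminescence read.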
TDP1 block = TDP1 (human) enzyme inhibition; 0.28% of 350,000 active; Potency, µM (highest dose often 130 µM), for the others: top-dose activity change, negative = inhibition, hits mostly inhibitors; recombinant TDP1, AlphaScreen DNA substrate cleavage; AID 485290; also: potency is read from the fitted curve at half-maximal effect; % is scaled to controls: 0 for no effect and ±100 for the full control effect; nearly all actives have a fitted effect of over 40% in size
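Enzyme-compound mixtures sat 15 min at room temperature, followed by a 5 min reaction with 15 nM final substrate and 10 min with AlphaScreen beads. Recombinant human Tdp1 was used at 1 nM final.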
* marks the source's active call; other numbers are inactive results; ? = inconclusive; nt = no result given; [ ] = remark or other dose. Shown are actives, neighbours in structure and some others; about 16% of the full set was active somewhere. Unless noted, calls follow the shape of the dose curve; as a rule, active = well fitted curve in the direction sought with a large enough effect; inconclusive = small, poorly fitted or top-dose-only effect, or another doubt; inactive = no such curve, though single readings can be large; an effect the other way counts as inactive or inconclusive.

SMILES	DT40 TDP1 CPT	DT40 TDP1 no CPT	uPA generation	miR-21 reporter	TDP1 block
CCOC(=O)c1c(Nc2ccc(C)c(C)c2)nnc(-c2ccccc2)c1-c1ccccc1	?	16µM*	nt	24%	nt
CCOC(=O)c1c(Nc2cc(C)cc(C)c2)nnc(-c2ccccc2)c1-c1ccccc1	12µM*	15µM*	nt	17%	nt
CC1=C(C(=O)OC2CCCCC2)C(c2ccc(F)cc2)NC(=O)N1 (stereo not given)	10%	?	1%	5%	nt
Cc1ccc(NC(=O)CCC(=O)OC(C(=O)c2ccc(C)c(C)c2)c2ccccc2)c(C)c1 (stereo not given)	-29%	-14%	1%	-9%	6%
COc1cc2c(cc1[N+](=O)[O-])-c1ccccc1C2	-15%	-13%	-8%	nt	nt
O=[N+]([O-])c1cc2c(cc1Br)-c1ccccc1C2	-9%	26µM*	nt	nt	nt
CC(NC(=O)C1CCC(C(C)(C)C)CC1)C(c1ccccc1)N1CCOCC1 (stereo not given)	?	23µM*	2%	-9%	0%
CC(NC(=O)Nc1ccc(Cl)c(Cl)c1)C(c1ccccc1)N1CCOCC1 (stereo not given)	26µM*	?	5µM*	25%	1%
CC(NC(=O)Nc1ccc([N+](=O)[O-])cc1)C(c1ccccc1)N1CCOCC1 (stereo not given)	-27%	?	-3%	0%	5%
CC(Cc1cccs1)NC(=O)Nc1ccc(Cl)c(Cl)c1 (stereo not given)	23µM*	23µM*	1%	20%	0%
COc1ccc(-c2ccc3c(=O)cc(-c4ccsc4)oc3c2)cn1	18µM*	?	6%	nt	nt
O=c1cc(-c2ccsc2)oc2cc(-c3ccc4c(c3)OCO4)ccc12	18µM*	?	0%	nt	7.1µM*
O=c1cc(-c2ccc3c(c2)OCCO3)oc2ccc(Cl)cc12	?	?	5%	-70%	-2%
O=C(C1=C[C@H](c2ccc(C(F)(F)F)cc2)C[C@H](OCc2ccc(CO)cc2)O1)N1CCOCC1	?	?	9%	-1%	4%
Cc1ccccc1OCC(=O)Nc1nnc(C2CCCC2)s1	20%	-21%	0%	-7%	3%
CCn1c(O)c(N=NC(=O)c2cccnc2)c2cc(Br)ccc21	?	23µM*	-4%	0%	4%
CCOC(=O)CSc1nc2c(sc(=S)n2-c2ccccc2OC)c(=O)n1-c1ccccc1OC	-24%	?	9%	-1%	nt
COc1ccc(-n2c(SCC(=O)C(C)(C)C)nc3c(sc(=S)n3-c3ccccc3)c2=O)c(OC)c1	13µM*	12µM*	10%	2%	nt
C=C(C)CN1CCN(S(=O)(=O)c2ccc(C)c(N(C)S(=O)(=O)c3ccc(C)cc3)c2C)CC1	23µM*	10µM*	-4%	-7%	1%
Cc1ccc(S(=O)(=O)N(C)c2c(C)ccc(S(=O)(=O)N3CCN(C)CC3)c2C)cc1	-9%	?	-1%	0%	3%
NS(=O)(=O)c1ccc(CCNC(=O)c2cc(-c3ccccn3)nc3ccc(Br)cc23)cc1	?	?	-3%	1%	-3%
O=C(NCCc1ccc(Cl)cc1)c1cc(-c2ccncc2)nc2ccccc12	?	?	19%	7%	nt
NS(=O)(=O)c1ccc(CCNC(=O)c2cc(-c3ccc(Br)cc3)nc3ccccc23)cc1	9.2µM*	8.2µM*	-25%	10%	3%
CCCc1ccc(-c2cc(C(=O)NCCc3ccc(S(N)(=O)=O)cc3)c3ccccc3n2)cc1	15µM*	12µM*	nt	-22%	3%
CCCc1cc(=O)[nH]c(SCc2ccc(F)cc2)n1	-1%	-1%	6%	-3%	nt

Only DT40 TDP1 CPT and uPA generation, for four of the compounds above:
compound | DT40 TDP1 CPT | uPA generation
CC1=C(C(=O)OC2CCCCC2)C(c2ccc(F)cc2)NC(=O)N1 (stereo not given) | 10% | 1%
CCOC(=O)c1c(Nc2cc(C)cc(C)c2)nnc(-c2ccccc2)c1-c1ccccc1 | 12µM* | nt
Cc1ccccc1OCC(=O)Nc1nnc(C2CCCC2)s1 | 20% | 0%
CC(NC(=O)Nc1ccc([N+](=O)[O-])cc1)C(c1ccccc1)N1CCOCC1 (stereo not given) | -27% | -3%

Further entries follow.
SMILES	DT40 TDP1 CPT	DT40 TDP1 no CPT	uPA generation	miR-21 reporter	TDP1 block
O=C1CC(c2ccccc2)Sc2nc(-c3ccccc3)c(-c3ccccc3)n21 (stereo not given)	-10%	-20%	8%	-6%	8%
C=C(C1=CCN(S(=O)C(C)(C)C)[C@@H]1CCO)c1ccccc1 (stereo not given in full)	7.3µM*	23µM*	-9%	nt	nt
O=C(NCc1cccc(Cl)c1)C1CCC(=O)N(CCN2CCOCC2)C1 (stereo not given)	9%	-1%	7%	-1%	3%
COc1ccc(-c2ccc(/C=C(\NC(=O)c3ccccc3)C(=O)N3CCOCC3)o2)cc1	15µM*	21µM*	-6%	15%	5%
COc1ccc(C(=O)N/C(=C\c2ccccc2)C(=O)N2CCOCC2)cc1	5%	4%	12%	1%	2%
COc1ccc(NC(=O)Cn2ccc3c(OC)cccc3c2=O)cc1	5%	4%	0%	1%	nt
COc1ccc2cc(C3CC=C(CO)CN3S(=O)(=O)c3ccccc3[N+](=O)[O-])n(C(=O)OC(C)(C)C)c2c1 (stereo not given)	23µM*	21µM*	nt	nt	nt
COc1ccc(OCC(=O)N2CCN(S(=O)(=O)c3ccccc3[N+](=O)[O-])CC2)cc1	-5%	-10%	0%	-2%	5%
Cc1ccc(C(=O)Nc2ccc(NC(=O)c3ccco3)c(C)c2)cc1	-4%	-18%	-3%	-37%	0%
O=C(Nc1cccc(C(=O)O)c1)/C(=C\c1ccc2c(c1)OCO2)NC(=O)c1ccc(Br)cc1	-1%	?	1%	2%	8%
CC(=O)N(CCCc1ccc(C(C)(C)C)cc1)CCCN(C)C	15µM*	?	-6%	-20%	9%
COc1ccc(NC(=O)c2c(C)oc3ccc(O)c(CN4CCC(C)CC4)c23)cc1Cl	9.2µM*	?	nt	?	7%
COc1ccc(NC(=O)c2c(C)oc3ccc(O)c(CN4CCCC(C)C4)c23)cc1Cl (stereo not given)	23µM*	16µM*	nt	?	9%
COC(=O)C1=C(C(=O)OC)[C@@H]2N(Cc3ccccc3)c3ccccc3[C@@]23C[C@@H](C(=O)OC)N(S(=O)(=O)c2ccc4c(c2)OCCN4C)C3=N1	nt	nt	nt	nt	10%[21 µM]
O=C(Nc1ccc(Cl)cc1)NC1CCCC1Cc1ccco1 (stereo not given)	-20%	?	-3%	0%	1%
O=C(Nc1ccc(Cl)cc1)NC1CCCCC1Cc1ccco1 (stereo not given)	?	18µM*	-9%	20%	3%
COc1ccc(OC2C(=O)N(c3ccc(F)cc3)C2c2ccc(OC)c(OC)c2)cc1 (stereo not given)	-19%	-23%	2%	-4%	4%
CCC(C)C(=O)Nc1nc(-c2ccc3c(c2)NC(=O)CO3)cs1 (stereo not given)	?	18µM*	-6%	-7%	4%
Nc1nc(-c2ccc3c(c2)NC(=O)CO3)cs1	?	-25%	-2%	-21%	12%

In the list so far, these contain a thiophene ring, fused or not.
SMILES	DT40 TDP1 CPT	DT40 TDP1 no CPT	uPA generation	miR-21 reporter	TDP1 block
CC(Cc1cccs1)NC(=O)Nc1ccc(Cl)c(Cl)c1 (stereo not given)	23µM*	23µM*	1%	20%	0%
COc1ccc(-c2ccc3c(=O)cc(-c4ccsc4)oc3c2)cn1	18µM*	?	6%	nt	nt
O=c1cc(-c2ccsc2)oc2cc(-c3ccc4c(c3)OCO4)ccc12	18µM*	?	0%	nt	7.1µM*
